Measured values from patent US20110224208A1, “NOVEL INHIBITORS OF FLAVIVIRUS REPLICATION” (KATHOLIEKE UNIVERSITEIT LEUVEN, K.U. LEUVEN R&D, priority 2008, published 2011).
In brackets after ≈: the same amount, converted by molar mass.

Assay: Proliferation of exponentially growing Huh-5-2 cells (MTS method)
Details: human, CC50, concentration required to inhibit the proliferation of exponentially growing Huh-5-2 cells by 50%

Structure (SMILES): COCCN1C(=O)c2ccccc2C(C(=O)Nc2ccc(Cl)cc2N)C1c1cccs1 (stereo not drawn) [C144, N-(2-amino-4-chlorophenyl)-2-(2-methoxyethyl)-1-oxo-3-(thiophen-2-yl)-1,2,3,4-tetrahydroisoquinoline-4-carboxamide]
- CC50 at 72 h (Table 2): 45.2 µg/mL (≈ 99.2 µM)

Structure (SMILES): COCCN1C(=O)c2ccccc2C(C(=O)Nc2nc(C)co2)C1c1cccs1 (stereo not drawn) [C154, 2-(2-methoxyethyl)-N-(4-methyloxazol-2-yl)-1-oxo-3-(thiophen-2-yl)-1,2,3,4-tetrahydroisoquinoline-4-carboxamide]
- CC50 at 72 h (Table 2): 53.4 µg/mL (≈ 130 µM)

Structure (SMILES): COCCN1C(=O)c2ccccc2C(C(=O)Nc2ccc(C(=O)OC)cc2)C1c1cccs1 (stereo not drawn) [C45, Methyl 4-(2-(2-methoxyethyl)-1-oxo-3-(thiophen-2-yl)-1,2,3,4-tetrahydroisoquinoline-4-carboxamido)benzoate]
- CC50 at 72 h (Table 2): 72.6 µg/mL (≈ 156 µM)
- CC50 at 72 h (Table 4): > 50 µg/mL

Structure (SMILES): COCCN1C(=O)c2ccccc2C(C(=O)Nc2ccc(C(=O)OC)c(OC)c2)C1c1cccs1 (stereo not drawn) [C114, methyl 2-methoxy-4-(2-(2-methoxyethyl)-1-oxo-3-(thiophen-2-yl)-1,2,3,4-tetrahydroisoquinoline-4-carboxamido)benzoate]
- CC50 at 72 h (Table 2): 58.7 µg/mL (≈ 119 µM)

Structure (SMILES): CCC1C(C(=O)Nc2cccc(OC)c2)c2ccccc2C(=O)N1CCOC (stereo not drawn) [C58, 3-Ethyl-2-(2-methoxyethyl)-N-(3-methoxyphenyl)-1-oxo-1,2,3,4-tetrahydroisoquinoline-4-carboxamide]
- CC50 at 72 h (Table 2): 85 µg/mL (≈ 222 µM)

Structure (SMILES): COCCN1C(=O)c2ccccc2C(C(=O)Nc2cc[nH]n2)C1c1cccs1 (stereo not drawn) [C184, 2-(2-methoxyethyl)-1-oxo-N-(1H-pyrazol-3-yl)-3-(thiophen-2-yl)-1,2,3,4-tetrahydroisoquinoline-4-carboxamide]
- CC50 at 72 h (Table 2): 85 µg/mL (≈ 214 µM)

Structure (SMILES): COCCN1C(=O)c2ccccc2C(C(=O)Nc2ccc(OC)c(OC)c2)C1c1cccs1 (stereo not drawn) [C48, N-(3,4-dimethoxyphenyl)-2-(2-methoxyethyl)-1-oxo-3-(thiophen-2-yl)-1,2,3,4-tetrahydroisoquinoline-4-carboxamide]
- CC50 at 72 h (Table 2): 102 µg/mL (≈ 219 µM)
- CC50 at 72 h (Table 4): > 50 µg/mL

Structure (SMILES): COCCN1C(=O)c2ccccc2C(C(=O)Nc2ccc(-c3cnco3)cc2)C1c1cccs1 (stereo not drawn) [C178, 2-(2-methoxyethyl)-N-(4-(oxazol-5-yl)phenyl)-1-oxo-3-(thiophen-2-yl)-1,2,3,4-tetrahydroisoquinoline-4-carboxamide]
- CC50 at 72 h (Table 2): > 100 µg/mL
- CC50 at 72 h (Table 4): > 50 µg/mL

Structure (SMILES): COCCN1C(=O)c2ccccc2C(C(=O)Nc2ccc3nc(C)ccc3c2)C1c1cccs1 (stereo not drawn) [C168, 2-(2-methoxyethyl)-N-(2-methylquinolin-6-yl)-1-oxo-3-(thiophen-2-yl)-1,2,3,4-tetrahydroisoquinoline-4-carboxamide]
- CC50 at 72 h (Table 2): > 100 µg/mL
- CC50 at 72 h (Table 4): > 50 µg/mL

Structure (SMILES): COCCn1c(-c2ccco2)c(C(=O)Nc2cccc(OC)c2)c2ccccc2c1=O [C38, 3-(furan-2-yl)-2-(2-methoxyethyl)-N-(3-methoxyphenyl)-1-oxo-1,2-dihydroisoquinoline-4-carboxamide]
- CC50 at 72 h (Table 2): 85.4 µg/mL (≈ 204 µM)

Structure (SMILES): COCCN1C(=O)c2ccccc2C(C(=O)Nc2ccc(-n3nc(C)cc3C)cc2)C1c1cccs1 (stereo not drawn) [C201, N-(4-(3,5-dimethyl-1H-pyrazol-1-yl)phenyl)-2-(2-methoxyethyl)-1-oxo-3-(thiophen-2-yl)-1,2,3,4-tetrahydroisoquinoline-4-carboxamide]
- CC50 at 72 h (Table 2): 19.5 µg/mL (≈ 38.9 µM)

Structure (SMILES): COCCN1C(=O)c2c(ccc(OC)c2F)C(C(=O)Nc2cccc(OC)c2)C1c1cccs1 (stereo not drawn) [C128, 8-fluoro-7-methoxy-2-(2-methoxyethyl)-N-(3-methoxyphenyl)-1-oxo-3-(thiophen-2-yl)-1,2,3,4-tetrahydroisoquinoline-4-carboxamide]
- CC50 at 72 h (Table 2): 52.7 µg/mL (≈ 109 µM)
- CC50 at 72 h (Table 4): > 50 µg/mL

Structure (SMILES): COCCN1C(=O)c2ccccc2C(C(=O)Nc2ccc(F)c(Cl)c2)C1c1cccs1 (stereo not drawn) [C94, N-(3-chloro-4-fluorophenyl)-2-(2-methoxyethyl)-1-oxo-3-(thiophen-2-yl)-1,2,3,4-tetrahydroisoquinoline-4-carboxamide]
- CC50 at 72 h (Table 2): 17.1 µg/mL (≈ 37.2 µM)

Structure (SMILES): COCCN1C(=O)c2ccccc2C(C(=O)Nc2cccc(OC)c2)C1c1cccn1C (stereo not drawn) [C106, 2-(2-methoxyethyl)-N-(3-methoxyphenyl)-3-(1-methyl-1H-pyrrol-2-yl)-1-oxo-1,2,3,4-tetrahydroisoquinoline-4-carboxamide]
- CC50 at 72 h (Table 2): 84.8 µg/mL (≈ 196 µM)

Structure (SMILES): CCCCN1C(=O)c2ccccc2C(C(=O)Nc2cccc(OC)c2)C1c1cccs1 (stereo not drawn) [C16, 2-Butyl-N-(3-methoxyphenyl)-1-oxo-3-(thiophen-2-yl)-1,2,3,4-tetrahydroisoquinoline-4-carboxamide]
- CC50 at 72 h (Table 2): 10.4 µg/mL (≈ 23.9 µM)

Structure (SMILES): COCCN1C(=O)c2ccccc2C(C(=O)Nc2cccc(Cl)c2)C1c1cccs1 (stereo not drawn) [C60, N-(3-chlorophenyl)-2-(2-methoxyethyl)-1-oxo-3-(thiophen-2-yl)-1,2,3,4-tetrahydroisoquinoline-4-carboxamide]
- CC50 at 72 h (Table 2): 86.9 µg/mL (≈ 197 µM)

Structure (SMILES): COCCN1C(=O)c2ccccc2C(C(=O)Nc2cccc(OC(F)(F)F)c2)C1c1cccs1 (stereo not drawn) [C112, 2-(2-methoxyethyl)-1-oxo-3-(thiophen-2-yl)-N-(3-(trifluoromethoxy)phenyl)-1,2,3,4-tetrahydroisoquinoline-4-carboxamide]
- CC50 at 72 h (Table 2): 75.7 µg/mL (≈ 154 µM)

Structure (SMILES): COCCN1C(=O)c2ccccc2C(C(=O)Nc2ccncn2)C1c1cccs1 (stereo not drawn) [C162, 2-(2-methoxyethyl)-1-oxo-N-(pyrimidin-4-yl)-3-(thiophen-2-yl)-1,2,3,4-tetrahydroisoquinoline-4-carboxamide]
- CC50 at 72 h (Table 2): 80.3 µg/mL (≈ 197 µM)

Structure (SMILES): COc1cccc(NC(=O)C2c3ccccc3C(=O)N(CCN(C)C)C2c2cccs2)c1 (stereo not drawn) [C15, 2-(2-(Dimethylamino)ethyl)-N-(3-methoxyphenyl)-1-oxo-3-(thiophen-2-yl)-1,2,3,4-tetrahydroisoquinoline-4-carboxamide]
- CC50 at 72 h (Table 2): 20.2 µg/mL (≈ 44.8 µM)

Structure (SMILES): COc1cccc(NC(=O)C2c3ccccc3C(=O)N(CC3CCCCC3)C2c2cccs2)c1 (stereo not drawn) [C22, 2-(Cyclohexylmethyl)-N-(3-methoxyphenyl)-1-oxo-3-(thiophen-2-yl)-1,2,3,4-tetrahydroisoquinoline-4-carboxamide]
- CC50 at 72 h (Table 2): 36.9 µg/mL (≈ 77.8 µM)

Structure (SMILES): COCCN1C(=O)c2ccccc2C(C(=O)Nc2ccc(-n3cccc3)cc2)C1c1ccc(Cl)s1 (stereo not drawn) [C153, N-(4-(1H-pyrrol-1-yl)phenyl)-3-(5-chlorothiophen-2-yl)-2-(2-methoxyethyl)-1-oxo-1,2,3,4-tetrahydroisoquinoline-4-carboxamide]
- CC50 at 72 h (Table 2): 60.9 µg/mL (≈ 120 µM)
- CC50 at 72 h (Table 4): > 50 µg/mL

Structure (SMILES): COCCN1C(=O)c2ccccc2C(C(=O)Nc2nc(C)c(C)s2)C1c1cccs1 (stereo not drawn) [C156, N-(4,5-dimethylthiazol-2-yl)-2-(2-methoxyethyl)-1-oxo-3-(thiophen-2-yl)-1,2,3,4-tetrahydroisoquinoline-4-carboxamide]
- CC50 at 72 h (Table 2): 86.3 µg/mL (≈ 195 µM)

Structure (SMILES): COCCN1C(=O)c2ccccc2C(C(=O)Nc2ccc(Oc3cncc(C)n3)cc2)C1c1cccs1 (stereo not drawn) [C191, 2-(2-methoxyethyl)-N-(4-(6-methylpyrazin-2-yloxy)phenyl)-1-oxo-3-(thiophen-2-yl)-1,2,3,4-tetrahydroisoquinoline-4-carboxamide]
- CC50 at 72 h (Table 2): 52.5 µg/mL (≈ 102 µM)
- CC50 at 72 h (Table 4): > 50 µg/mL

Structure (SMILES): COCCN1C(=O)c2ccccc2C(C(=O)Nc2ccc(Cl)cc2)C1c1cccs1 (stereo not drawn) [C49, N-(4-chlorophenyl)-2-(2-methoxyethyl)-1-oxo-3-(thiophen-2-yl)-1,2,3,4-tetrahydroisoquinoline-4-carboxamide]
- CC50 at 72 h (Table 2): 96.8 µg/mL (≈ 220 µM)
- CC50 at 72 h (Table 4): > 50 µg/mL

Structure (SMILES): COc1cccc(NC(=O)C2c3ccccc3C(=O)N(CCSC)C2c2cccs2)c1 (stereo not drawn) [C63, N-(3-methoxyphenyl)-2-(2-(methylthio)ethyl)-1-oxo-3-(thiophen-2-yl)-1,2,3,4-tetrahydroisoquinoline-4-carboxamide]
- CC50 at 72 h (Table 2): 81.6 µg/mL (≈ 180 µM)
